Among the data in patent EP0670826B1, “FATTY ACID DERIVATIVES AND PHARMACEUTICAL COMPOSITIONS CONTAINING THEM” (YISSUM RESEARCH DEVELOPMENT COMPANY OF THE HEBREW …, priority 1992, dated 1994) are Ki values, retold here.

The chains behind the UniProt entries cited, without tags or fusion partners.
UniProt P20272, whole entry: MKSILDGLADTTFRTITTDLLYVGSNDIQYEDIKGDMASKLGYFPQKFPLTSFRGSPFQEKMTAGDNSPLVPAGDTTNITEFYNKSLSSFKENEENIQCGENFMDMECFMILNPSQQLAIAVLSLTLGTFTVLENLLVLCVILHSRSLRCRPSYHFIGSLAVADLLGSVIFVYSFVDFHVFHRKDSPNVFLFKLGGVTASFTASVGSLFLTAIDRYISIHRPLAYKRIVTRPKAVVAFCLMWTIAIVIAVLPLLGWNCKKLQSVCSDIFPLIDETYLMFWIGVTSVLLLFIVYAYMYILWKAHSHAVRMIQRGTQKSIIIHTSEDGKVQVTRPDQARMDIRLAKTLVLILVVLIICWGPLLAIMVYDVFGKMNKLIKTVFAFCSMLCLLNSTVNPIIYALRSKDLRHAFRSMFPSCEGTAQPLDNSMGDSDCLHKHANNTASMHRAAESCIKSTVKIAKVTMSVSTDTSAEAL

In the test the target is T1, cannabinoid receptor (Rattus norvegicus, UniProt P20272).
T1 construct: Synaptosomal membranes were prepared from rat whole brain-minus brainstem; from tissue; host or cells: rat whole brain minus brainstem, synaptosomal membranes (Sprague-Dawley males)
Put plainly: centrifugation radioligand binding assay with [3H]HU-243 on synaptosomal membranes.

What is called Ki is the equilibrium dissociation constant of an inhibitor or competing ligand from its target. A higher Ki goes with a looser hold on the target. As to `CCCCC/C=C\C/C=C\C/C=C\C/C=C\CCCC(=O)NCCO` [Arachidonylethanolamide, 5,8,11,14-icosatetraenamide, (N,-2-hydroxyethyl)-(all-Z)], affinity was put at a Ki of 52 nM.
